Measured values reported in patent US10981928B2, “Methods of making low odor choline salts of an organic compound” (HALO LIFE SCIENCE, LLC, priority 2016, dated 2021).

Key:
[1] = room temperature
[2] = 10 mg/ml solution in water at room temperature

**Q.** Which results are given for dicholine ellagate?
**A.** Solubility in water [1]: 187 mg/mL; pH [2]: 7.0
